What all share (experiment): cell-based or functional assay
Assay [1] has as its target FcγR1 (CD64) on human CD14+ monocytes (human) (UniProt P12314).
The target in assay [2] is FcγR2 (CD32) on human CD14+ monocytes (human).
Assay [3] concerns the target FcγR3 (CD16) on human CD14+ monocytes (human).
Another assay deals with FcγRs.

In assay [1], “recombinant Factor VIII Fc fusion protein (rFVIIIFc) (from UniProt P0DOX5 223-449)” gave a percent of cells characterized as osteoclasts after rFVIIIFc with an Anti-CD64 antibody Fab (FIG. 18B) of 2.73% and a percent of cells characterized as osteoclasts after rFVIIIFc with an Anti-CD64 antibody Fab (FIG. 22B) of 3.02%. This substance also registered a percent of cells characterized as osteoclasts after rFVIIIFc with an Anti-CD32 antibody (FIG. 19B and FIG. 23B) in assay [2] of 17%. In assay [3], the percent of cells characterized as osteoclasts after rFVIIIFc with an Anti-CD16 antibody (FIG. 20B) came out at 4.11% and the percent of cells characterized as osteoclasts after rFVIIIFc with an Anti-CD16 antibody (printed as FIG. 24A) is 4.03%. In the assay with FcγRs, this substance gave an IC50 of the inhibition of osteoclast formation (CD51/61 high cells by flow cytometry, normalized to vehicle control) of 7.49 nM; a percent of cells characterized as CD51/61 high osteoclasts (FIG. 17B) of 5.54%; a percent of cells characterized as CD51/61 high osteoclasts (FIG. 21B) of 5.57%; a percent of cells differentiated into osteoclasts (CD51/61 high, CD14 low) after 0.7 nM rFVIIIFc of 62.6%. Moreover, the percent of cells differentiated into osteoclasts (CD51/61 high, CD14 low) after 75 nM rFVIIIFc with FcγRs came out at 1.44%.

Source of the values: patent US20220233650A1.
